Earlier results, collected in patent US10669261B2, “Heteroarylhydroxypyrimidinones as agonists of the APJ receptor” (BRISTOL-MYERS SQUIBB COMPANY, priority 2015, dated 2020).

The chains behind the UniProt entries cited, without tags or fusion partners. Where a name states a change or a piece, a line headed by the entry shows the natural chain unless it says otherwise.
UniProt P35414: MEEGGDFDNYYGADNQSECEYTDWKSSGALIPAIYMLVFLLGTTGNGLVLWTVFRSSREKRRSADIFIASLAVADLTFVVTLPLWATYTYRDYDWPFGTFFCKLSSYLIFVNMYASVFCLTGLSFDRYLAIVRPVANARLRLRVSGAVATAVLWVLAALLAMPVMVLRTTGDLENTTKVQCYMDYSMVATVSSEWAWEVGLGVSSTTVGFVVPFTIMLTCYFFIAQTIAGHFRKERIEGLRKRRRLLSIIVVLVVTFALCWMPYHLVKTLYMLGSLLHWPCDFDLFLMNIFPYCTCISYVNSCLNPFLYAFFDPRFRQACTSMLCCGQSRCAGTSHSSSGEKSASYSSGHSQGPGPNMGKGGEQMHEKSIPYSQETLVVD

Target: APJ receptor (Homo sapiens, UniProt P35414)
Settings: cited from earlier work

apelin
binding affinity: sub-nanomolar
